Assay results as given in article PMC12313985.

Amino acid sequences for entries named in this document (tags omitted). A change or cut given only in a name is not applied to a line headed by its entry.
UniProt P63104: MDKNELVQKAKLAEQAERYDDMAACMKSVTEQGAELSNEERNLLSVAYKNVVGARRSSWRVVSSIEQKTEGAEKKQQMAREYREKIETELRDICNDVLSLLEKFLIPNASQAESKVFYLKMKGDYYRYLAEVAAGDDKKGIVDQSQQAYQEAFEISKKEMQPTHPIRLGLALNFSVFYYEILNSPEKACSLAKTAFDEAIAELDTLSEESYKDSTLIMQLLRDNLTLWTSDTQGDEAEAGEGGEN

Biological target: 14-3-3 protein zeta (14-3-3ζ) (UniProt P63104)
Test: not stated; KD told in the text with a pointer to Fig. 2f (a thermal stability panel); how this value was got is not told

Kd: 1000 nM
Substance: PKA-phosphorylated full-length human Tau (PKA-Tau) (from UniProt P10636-8 1-441) (natural protein)
